Measured values from patent US9527887B2 (priority 2011, dated 2016).
Like-named read-outs stand apart in the source and are kept apart here.

By UniProt entry, the sequences of proteins in these tests, tags left out. Residues count along the entry.
UniProt P25092, 24-1073 limits assumed: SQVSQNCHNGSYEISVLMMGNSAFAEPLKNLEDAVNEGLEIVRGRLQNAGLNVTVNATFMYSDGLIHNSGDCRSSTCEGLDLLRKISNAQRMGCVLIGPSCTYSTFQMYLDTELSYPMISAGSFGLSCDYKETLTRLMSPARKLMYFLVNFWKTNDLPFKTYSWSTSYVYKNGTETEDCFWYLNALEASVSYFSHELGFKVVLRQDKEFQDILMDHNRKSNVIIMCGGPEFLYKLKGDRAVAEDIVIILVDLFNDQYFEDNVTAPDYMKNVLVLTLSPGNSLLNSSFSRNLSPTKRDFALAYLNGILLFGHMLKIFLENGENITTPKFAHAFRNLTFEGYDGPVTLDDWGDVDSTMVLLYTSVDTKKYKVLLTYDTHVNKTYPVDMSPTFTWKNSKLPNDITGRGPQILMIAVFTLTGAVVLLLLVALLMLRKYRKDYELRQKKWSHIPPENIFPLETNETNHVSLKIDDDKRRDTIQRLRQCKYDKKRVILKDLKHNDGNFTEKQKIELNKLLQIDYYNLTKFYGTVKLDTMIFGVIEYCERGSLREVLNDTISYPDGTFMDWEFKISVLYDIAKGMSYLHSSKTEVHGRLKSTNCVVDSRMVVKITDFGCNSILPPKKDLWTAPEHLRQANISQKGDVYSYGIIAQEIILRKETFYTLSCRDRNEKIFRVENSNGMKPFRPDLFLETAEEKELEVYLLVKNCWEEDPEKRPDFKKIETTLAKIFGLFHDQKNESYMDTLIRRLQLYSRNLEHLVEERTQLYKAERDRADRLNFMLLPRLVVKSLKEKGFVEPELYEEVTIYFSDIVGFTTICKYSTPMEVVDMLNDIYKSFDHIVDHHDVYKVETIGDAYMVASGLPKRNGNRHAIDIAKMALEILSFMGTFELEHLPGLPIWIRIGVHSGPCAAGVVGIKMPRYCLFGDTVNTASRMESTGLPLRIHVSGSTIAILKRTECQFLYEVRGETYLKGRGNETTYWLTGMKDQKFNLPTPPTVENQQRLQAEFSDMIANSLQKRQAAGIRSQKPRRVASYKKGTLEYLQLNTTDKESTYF

Target: GC-C (Homo sapiens, UniProt P25092)
Assay type: cell-based
Settings: for EC50: 30 min at 37° C., IBMX

With `CC(C)C[C@@H]1NC(=O)[C@H](CCC(=O)O)NC(=O)[C@@H]2CSSC[C@@H]3NC(=O)[C@H](C)NC(=O)[C@@H]4CCCN4C(=O)[C@H](CC(N)=O)NC(=O)[C@H](CSSC[C@H](NC(=O)[C@H](CC(=O)O)NC(=O)[C@H](CC(=O)O)NC(=O)CCN)C(=O)N2)NC(=O)[C@H](CSSC[C@@H](C(=O)N[C@@H](Cc2ccc(O)cc2)C(=O)O)NC(=O)CNC(=O)[C@H]([C@@H](C)O)NC3=O)NC1=O` [Peptide 15, dADDCCELCCNPACTGCY] the “Ratio EC50 pH 8/EC50 pH 5” value (T84 cGMP assay) was 110.2, the EC50 (pH 5 (DMEM+20 mM MES), read-out: cGMP response in T84 cells EC50 nM pH 5) was 6 nM and the EC50 (pH 8 (DMEM+50 mM sodium bicarbonate), read-out: cGMP response in T84 cells EC50 nM pH 8) was 661 nM.
